Ab-14 light chain CDR variants: yeast mating affinities

Data: MIT Lincoln Laboratory AlphaSeq set, Engelhart et al. 2022, doi:10.1038/s41597-022-01779-4, as distributed in FLAb.

All variants were tested on one target, the spike HR2 peptide PDVDLGDISGINAS (SARS-CoV-2).

The variants keep the heavy chain, the linker and the frameworks of Ab-14 (scFv order VH, a 15-residue (Gly4Ser)3 linker, VL).
VH: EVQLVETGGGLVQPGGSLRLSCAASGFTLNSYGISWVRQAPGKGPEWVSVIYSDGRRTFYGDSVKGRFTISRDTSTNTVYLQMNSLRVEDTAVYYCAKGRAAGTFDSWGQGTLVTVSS
VL: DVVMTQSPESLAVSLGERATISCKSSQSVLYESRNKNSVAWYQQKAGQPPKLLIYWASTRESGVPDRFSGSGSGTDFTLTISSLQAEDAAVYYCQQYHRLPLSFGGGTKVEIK

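Library AAYL50 holds single substitutions and randomly drawn double and triple substitutions in the CDRs. The scFvs were displayed on barcoded MATa yeast, the peptide on MATalpha yeast. After mating in shaken culture at 30 °C for 16 h, diploids were selected and their barcode pairs sequenced. Scores were corrected for input abundance and mapped to Kd with protein pairs of known affinity run in the same pool. The assay was run in three technical replicates.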

The parent's light chain CDRs are KSSQSVLYESRNKNSVA, WASTRES, QQYHRLPLS; each variant's own CDRs replace them letter for letter. Numbers give log10(Kd / nM), so 0 is 1 nM and 3 is 1 µM. Smaller is tighter. Averages over replicates are reported, and they cover detected replicates only. "nd" means that the variant was in the library but no mating with the target was seen in that replicate; the authors take this as a sign of poor binding, and no number exists. Nonspecific signal, from three strains lacking the peptide, appeared in 18% of pairings of library AAYL50, centred on 4.19 (5% of these signals below 2.99); values are not corrected for it. Also given: how often the same scFv was detected with the empty control strains, with their mean in brackets.

| CDR-L1 | CDR-L2 | CDR-L3 | log10 Kd, replicates | mean, log10 nM | signal with controls |
|---|---|---|---|---|---|
| KHSQSVLYEMRNKNSVA | WASTWES | QQYHRLPLS | nd nd nd | nd | 0/9 |
| KSSQSVLYESRNKNSVA | WASTRES | QQYHRMKLG | 1.57 nd 1.97 | 1.77 | 0/9 |
| KSIQSVLYTSRNKNSVA | WASTRES | QQYHRVPLS | 4.78 3.60 4.14 | 4.17 | 9/9 (4.27) |
| KSSQFVLYESRFKGSVA | WASTRES | QQYHRLPLS | nd nd nd | nd | 0/9 |
| KSSQSGLYESRNKQSVA | WASTREM | QQYHRLPLS | nd nd nd | nd | 0/9 |
| KSSQSVHYESRNKNSVA | WAITRES | QQYHRLKLS | 2.54 2.17 nd | 2.36 | 0/9 |
| ISSQSVLYESRNVNSVA | WASGRES | QQYHRLPLS | nd nd 4.21 | 4.21 | 4/9 (4.23) |
| KSSYSVLYESRNKNSVA | WASTRES | QQYHRLPLS | nd 3.45 4.02 | 3.74 | 0/9 |
| KSSQSVLYESMNKNSVA | WASTRES | QVYLRLPLS | 2.51 2.16 2.62 | 2.43 | 1/9 (3.91) |
| KSSQDVKTESRNKNSVA | WASTRES | QQYHRLPLS | 0.60 0.87 0.77 | 0.75 | 1/9 (3.88) |
| KSSQSVLYKSRNKNSVS | WASMRES | QQYHRLPLS | 4.18 nd nd | 4.18 | 5/9 (4.52) |
| MSSQSALYESRNKNSVA | VASTRES | QQYHRLPLS | nd nd nd | nd | 3/9 (4.74) |
| KESISVLGESRNKNSVA | WASTRES | QQYHRLPLS | 0.56 1.07 0.71 | 0.78 | 5/9 (4.62) |
| KSSQSVLCESRNKNSVR | WASTRES | QQYHRRPLS | nd nd nd | nd | 1/9 (3.98) |
| KSSQSVLYASRNKNSVA | YASTRES | NQYHRLPLS | 0.73 0.83 0.99 | 0.85 | 0/9 |
| KSSQSVLYESRNKNSVA | WASTRES | QGYHLLPLD | 2.52 2.75 nd | 2.63 | 0/9 |
| DSSQSHLYESRNKNSVA | WASTREH | QQYHRLPLS | 2.30 3.62 3.46 | 3.13 | 1/9 (4.20) |
| KSSQSVLYESNNKNSVA | WASTREA | QQYHRHPLS | 0.74 0.80 0.68 | 0.74 | 2/9 (4.64) |
| KISQSVLYESRNKNSVA | WASKRES | QQYHRLPTS | 3.43 2.59 2.92 | 2.98 | 7/9 (3.53) |
| VFSQSVLYESRNKNSVA | WASTRFS | QQYHRLPLS | 0.96 1.09 0.90 | 0.98 | 3/9 (3.28) |
| KSSQSVLYESRNKNSQA | WASTRES | QTYHRFPLS | nd nd nd | nd | 0/9 |
| KSSQSVLYESRFKNSVA | VASTRES | QQYHRLPLE | nd 4.17 4.30 | 4.24 | 1/9 (4.13) |
| KSSQSVLYSSRNKNSVA | WASTRES | QQYHDLDLS | 5.32 3.47 nd | 4.39 | 4/9 (3.82) |
| KSSQSVLYESVNKNSVA | WASTRES | QQYHRPPLQ | 0.49 0.68 0.63 | 0.60 | 4/9 (5.05) |
| KYSQSVLYESRNKQSVA | WSSTRES | QQYHRLPLS | 1.40 1.44 1.38 | 1.41 | 1/9 (4.62) |
| KWKQSVDYESRNKNSVA | WASTRES | QQYHRLPLS | nd nd nd | nd | 0/9 |
| KSSQSVLYERRNKNSVA | WASTRHS | QQYHHLPLS | nd nd nd | nd | 3/9 (3.53) |
| KSSQSVLYESRNKNSRR | WESTRES | QQYHRLPLS | 3.71 nd 3.52 | 3.61 | 0/9 |
| KSSQSVLYESRNKNSKA | WASTRFS | QQYHRLPLS | 4.19 nd 4.25 | 4.22 | 5/9 (4.18) |
| KSSQSVLYESRNKNLVE | DASTRES | QQYHRLPLS | nd nd nd | nd | 0/9 |
| KSSQSVLTESRNKNSEA | WASTPES | QQYHRLPLS | 4.73 4.12 5.35 | 4.73 | 6/9 (4.48) |
| GSSQSVLYESRNKNSPA | WASTRES | QQYHRLALS | 3.93 nd 3.12 | 3.52 | 5/9 (4.64) |
| KSSQSVLYESRNKNSVA | WASTPES | VWYHRLPLS | nd nd nd | nd | 0/9 |
| KSSQSVLYESRNKNSVA | WASTRES | QQAHRLPMV | nd nd nd | nd | 0/9 |
| KSQQSVLYESRNKNSVA | WASTRES | QQYHRYPQS | nd nd nd | nd | 1/9 (3.37) |
| KSSQSVLYESRNKNSVA | WLDKRES | QQYHRLPLS | 1.60 1.57 1.94 | 1.70 | 2/9 (4.20) |
| KSSQSVLYESRNKNSVA | WASTAEF | QQYHRLPLS | nd nd nd | nd | 0/9 |
| LSSQSVLYESRNKNSVK | WASPRES | QQYHRLPLS | nd nd nd | nd | 1/9 (3.98) |
| KSSQSVLYESSNDNSVA | WASTRES | QQYHRLPLL | 0.91 1.06 1.09 | 1.02 | 0/9 |
| QSSQSVLYESRNKNSVA | WASTRNS | QQYHRLRLS | nd nd nd | nd | 0/9 |
| KSSQSVLYESRNKNNVA | WASTAES | QQYTRLPLS | nd nd nd | nd | 1/9 (4.25) |
| KSSQSVEYESRNKNSVA | WASARES | QWYHRLPLS | nd nd nd | nd | 0/9 |
| KSSQSVLYENRNKNSVA | WASTRES | QQYHVLPLI | 2.72 2.57 2.41 | 2.56 | 1/9 (3.45) |
| KSFQSVLYESRNKNSVA | WKSTRES | QQYHRLVLS | nd nd nd | nd | 0/9 |
| KFSQSRLYESRNKNSVA | WASTRES | QQYHRLPLS | 0.29 0.54 0.48 | 0.43 | 0/9 |
| KSSQSVLYESDNKNSVA | WWSTAES | QQYHRLPLS | nd nd nd | nd | 3/9 (5.08) |
| KSSQSVLYEKRQKNSVA | WASTRES | QQYNRLPLS | 2.94 2.68 2.80 | 2.81 | 3/9 (4.26) |
| KSSQSVLYEVRNKNSVA | WASTRES | QMYHRLPLG | 6.18 nd nd | 6.18 | 1/9 (4.21) |
| KSSQSVLYECRNKNSGA | WACTRES | QQYHRLPLS | nd nd nd | nd | 0/9 |
| KSSQPVLYESRNKNSVA | WASERES | QQYHRLPLF | 0.74 0.89 0.82 | 0.82 | 1/9 (4.17) |

The first 4 variants above that were never detected:

CDR-L1	CDR-L2	CDR-L3	log10 Kd, replicates	mean, log10 nM	signal with controls
KHSQSVLYEMRNKNSVA	WASTWES	QQYHRLPLS	nd nd nd	nd	0/9
KSSQFVLYESRFKGSVA	WASTRES	QQYHRLPLS	nd nd nd	nd	0/9
KSSQSGLYESRNKQSVA	WASTREM	QQYHRLPLS	nd nd nd	nd	0/9
MSSQSALYESRNKNSVA	VASTRES	QQYHRLPLS	nd nd nd	nd	3/9 (4.74)